Source: patent US20150307938A1, “METHOD TO IDENTIFY A NOVEL CLASS OF IMMUNOLOGIC ADJUVANTS” (Lancell, L.L.C., priority 2011, published 2015)

Tested on: skin
Experiment: Affymetrix microarray of skin, DBP-4 hr and analogs vs. untreated; gene selection by log-2 fold change, Wilcoxon, Kendall tau (Tables 8, 9)
Format: in vivo, mouse
Details: skin gene expression, DBP-4 hr vs. untreated; gene (probe) named in the table row; Yes = among genes selected by log-2 fold change

CCCCOC(=O)c1ccccc1C(=O)OCCCC [DBP, dibutylphthalate]
≧2-Fold change: No
